Test system: Balanus amphitrite
Assay: Anti-settlement assay with barnacle cyprid larvae (settlement inhibition and mortality, 48 h)
Format: in vivo
Protocol: Compounds dissolved in DMSO were sequentially administered to the wells, starting with a concentration of 25 µg/mL and proceeding with serial half-logarithmic dilutions. The volume of the compound in each well was maintained at […], with seawater as the blank control, DMSO as the negative control, and SeaNine 211 serving as the positive control. Utilizing a stereo microscope, a 1 mL micropipette was employed to introduce 995 μL of seawater and between 21 and 25 cyprid larvae into each well of a 24-well plate. Subsequently, the plates were incubated in a darkened, temperature-controlled environment for 48 h. […] This observation facilitated the calculation of mortality and settlement rates of the barnacle cyprids, crucial for assessing the antifouling properties of the compounds. The determination of EC50 values for the inhibition of barnacle larval attachment and LC50 values for larval mortality offered an evaluation of the compounds’ efficacy in deterring barnacle larval adherence and their associated toxicity.

brusatol [B1, reference compound]
LC50 (larval mortality) (Balanus amphitrite cyprid larvae, 48 h incubation): 56.1254 ± 5.2154 µg/mL | LC50/EC50 (Balanus amphitrite, ratio >15 indicating low toxicity): 20.1701

— PMC11765156, “New Brusatol Derivatives as Anti-Settlement Agents Against Barnacles, Targeting HSP90: Design, Synthesis, Biological Evaluation, and Molecular Docking Investigations” (International Journal of Molecular Sciences, 2025)
